Measurements from patent publication US20120115869A1, “TETRAZOLE DERIVATIVES” (MERCK SERONO S.A., priority 2009, published 2012).

Biological target: T1, CRTH2 (DP2) (Homo sapiens, UniProt Q9Y5Y4)
T1 construct: host or cells: CHO cells
T1 sequence (Q9Y5Y4 1-395): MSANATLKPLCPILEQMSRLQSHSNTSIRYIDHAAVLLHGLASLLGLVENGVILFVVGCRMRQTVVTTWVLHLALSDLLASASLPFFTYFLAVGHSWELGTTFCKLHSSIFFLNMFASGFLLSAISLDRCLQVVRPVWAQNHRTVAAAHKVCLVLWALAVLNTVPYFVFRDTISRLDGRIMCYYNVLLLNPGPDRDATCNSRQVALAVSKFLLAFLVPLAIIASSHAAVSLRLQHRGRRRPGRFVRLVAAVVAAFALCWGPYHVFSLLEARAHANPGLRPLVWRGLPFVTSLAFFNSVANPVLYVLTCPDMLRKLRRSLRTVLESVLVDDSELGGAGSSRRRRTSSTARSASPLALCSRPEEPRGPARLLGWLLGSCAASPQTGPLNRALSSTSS
Experiment: Radioligand binding Scintillation Proximity Assay ([3H]PGD2, hCRTH2-CHO cell membranes)
Details: 1.5 nM [3H]PGD2, hCRTH2-CHO cell membranes, SPA
Protocol: Adherent CHO cells expressing hCRTH2 (Euroscreen, Belgium) were cultured in 225 cm^2 cell culture flasks (Corning, USA) in 30 ml of medium. After two rinses of phosphate buffered saline (PBS), cells were harvested in 10 ml of PBS containing 1 mM EDTA, centrifuged at 500×g for 5 min at 4° C. and frozen at −80° C. The pellet was re-suspended in 50 mM Tris-HCl, pH 7.4, 2 mM EDTA, 250 mM Sucrose, containing protease inhibitor cocktail tablets, (Complete EDTA-free, Roche, Germany) and incubated 30 min at 4° C. Cells were disrupted by nitrogen cavitation (Parr Instruments, USA) at 4° C. (800 p.s.i. for 30 min), and centrifuged at 500×g for 10 min at 4° C. Pellet containing nuclei and cellular debris was discarded and supernatant was centrifuged 60 min at 4° C. at 45000×g. Membrane pellet was re-suspended in storage buffer (10 mM HEPES/KOH pH 7.4, 1 mM EDTA, 250 mM sucrose, protease inhibitor cocktail tablets) using Dounce homogenization and frozen in liquid nitrogen, and stored at 80° C.
Non-specific binding was determined in the presence of 10 μM PGD2 (Cayman, USA). Competing Compounds of Formula (I) were diluted in dimethylsulphoxide so that the total volume of dimethylsulfoxide was kept constant at 1% dimethylsulphoxide (Me2SO). […]

CCC(=O)N(Cc1cccc(O)c1)c1cc(F)cc(-c2nnn[nH]2)c1 [Example 84, N-[3-fluoro-5-(1H-tetrazol-5-yl)phenyl]-N-(3-hydroxybenzyl)propanamide]
IC50: 28 nM
